Ab-14 light chain CDR variants: yeast mating affinities

From the AlphaSeq antibody data of Li et al. 2023 (doi:10.1038/s41467-023-39022-2), copy in the FLAb collection.

Antigen: PDVDLGDISGINAS, a 14-residue peptide of the SARS-CoV-2 spike HR2 region.

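Phage display of a naive human antibody library on the peptide gave the parent. The variants were designed computationally from a first round of random CDR variants and then made and measured. Several design methods are mixed in this list. The assay is AlphaSeq: two haploid yeast populations carry antibody and antigen on their surface. Pairs that bind mate more often; barcode pairs of the diploids are counted by sequencing. Each replicate has its own calibration line, from reference interactions of the BCL2 family. The assay was run in six technical replicates.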

Parent: Ab-14, a human scFv built as VH, a (GGGGS)3 linker, VL. Only the CDRs of the light chain vary.
VH: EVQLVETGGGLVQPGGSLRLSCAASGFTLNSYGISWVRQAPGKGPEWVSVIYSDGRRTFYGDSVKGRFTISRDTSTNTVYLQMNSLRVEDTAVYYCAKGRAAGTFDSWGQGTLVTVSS
VL: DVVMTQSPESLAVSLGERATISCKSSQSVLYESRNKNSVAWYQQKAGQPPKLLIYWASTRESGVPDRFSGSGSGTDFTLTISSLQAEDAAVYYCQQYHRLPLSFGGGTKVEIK

Variants are written as CDR1, CDR2 and CDR3 of the light chain (limits as in the source). Parent: KSSQSVLYESRNKNSVA, WASTRES, QQYHRLPLS. Each Kd is an estimate from the mating assay, the geometric mean of the replicates in which the pair was seen; lower is stronger. "not detected" means that the variant was in the library but no mating with the target was seen in any replicate; the authors take this as a sign of poor binding, and no number exists. Entries are sorted by rising average, undetected variants last. The parent sequence was in this pool as ten entries: three were never detected, three once, and four in most replicates, with averages from 2.2 nM to 240 nM.

CDR-L1,CDR-L2,CDR-L3,Kd (apparent),detected
KFSCGVDYESRNKNSVA,GASTRES,QQYHRLPLS,310 pM,6 of 6
KLSMSVLMEQRNVNSVA,SANTREE,QQYHRLPLS,350 pM,6 of 6
KLSQSVLYESRNKNSVA,DASTRLS,QQYHRLPLS,410 pM,6 of 6
KLSQSMLYESRNKNSVA,NASTRSS,QQYHRLPLS,540 pM,6 of 6
KLSQSYLYESGNKNSVA,NASTRES,QQYHRLPLS,620 pM,6 of 6
KLSQSVLYESRNKMSVA,GASTRES,QQYHRLPLS,730 pM,6 of 6
KFMQSVLYESRNKNSVA,NASQRES,QQYHRLPLS,800 pM,6 of 6
KVLQSVLYESRNKNSVA,HASTRES,QQYHRLPLS,830 pM,6 of 6
KVQQSQLYESRNKNSVA,NASTRCS,QQYHRLPLS,920 pM,6 of 6
KVSQSVLYEQRNKNSVA,DASTRES,QQYHRLPLS,920 pM,6 of 6
YLSQSVLYESRNKNSVA,NASTRMS,QQYHRLPLS,1.2 nM,6 of 6
KVSPSNLYESRNKNSVA,NASTRES,QQYHRLPLS,1.3 nM,6 of 6
QVQAFHEHEKDQNQAMA,EASMRDA,QQYERLPLS,1.3 nM,6 of 6
KLYYSDGGLQRNKNAVA,EASTREM,QQYHRLPLS,1.5 nM,6 of 6
KLYQSMGYLSHNKNSIA,DMDRREN,QQYHRLPLS,1.5 nM,6 of 6
KFSQSVLYESRQKNSVA,NASTRES,QQYHQLPLS,1.6 nM,6 of 6
KLSQSWLYEDRVKNSVA,GAQTRES,QQYHRLPLS,1.9 nM,6 of 6
KFLSLSLHQTGNLNSVA,DAEERQE,QQYMRLPLM,2.0 nM,6 of 6
HVSEMIFAQMKQRNSVA,ENSTREA,QQYDRLPLS,2.1 nM,6 of 6
KVSQSVLYESRLKNSVA,DASTRCS,QQYHRLPLS,2.1 nM,6 of 6
KSSQSWYYEDRVKNSVA,GASTRES,QQYHRLPLS,2.2 nM,6 of 6
KVSQSEPYESRNKNSVA,NASTRMS,QQYHRLPLS,3.0 nM,6 of 6
KVSTSELEESRNKGSVA,WASKREE,QQYHRLPLS,3.1 nM,6 of 6
KSQQSVWYESRNKNSVA,NASLRCS,QQYHRLPLS,3.3 nM,6 of 6
TLTQVTMVESYNKDSVA,QASTRLE,QDYHRLPLS,3.5 nM,6 of 6
QSSQSVLYEMRNKNSVA,AASIRES,QQYHRLPLS,4.6 nM,6 of 6
KLVQFMNRGTHHTSNIA,DAQTRLD,QQYARLPLA,6.0 nM,6 of 6
KCSQNVAIMGRGKNNVA,EMTTREE,QQYDRLPLS,7.4 nM,6 of 6
KLSLSVIYESTNKNSVA,KASTRES,QQYHRLPLS,8.0 nM,6 of 6
RLTQQMAGFNRHANAIA,STAERQW,QQYARLPIS,8.2 nM,6 of 6
HMSMLTLGGMRHRNSVA,QMTTREN,QQYDHLPLS,9.6 nM,6 of 6
KLGQLTAIESRNNNSVA,QMDTRES,QQYDRLPLS,12 nM,6 of 6
KISQSGLYESRNKNSVA,WASTRSS,QNYHRLPLS,16 nM,6 of 6
KSSISKLEESRNKNSVA,EASTRES,QQYHRLPLS,18 nM,3 of 6
KVSQTFNVGTKNKNSLA,EMSTREF,QDYHRLPLS,18 nM,6 of 6
TISQMFWGESRNRNSVA,QASTRES,QSYDRLPLS,20 nM,6 of 6
HMSMLTLQGLRHRNAVA,QMTTREN,QQYDRLPLS,27 nM,5 of 6
HMSMLTMMGMRHRNSVA,QMTVREN,QQYDRLPLM,42 nM,6 of 6
KLSMSYRFLTEEKNSIA,ELVTRMS,QQYHRLPLS,43 nM,6 of 6
KLEQSTWYESRNCNSVA,NASVRES,QQYHRLPLS,50 nM,6 of 6
ILYDEVGTLSRNKNSVA,DNSTRES,QQYDRLPLS,55 nM,6 of 6
KVSISILYESRNHNSVA,WASTRES,QQYHRLPLS,66 nM,1 of 6
KFQNLMGTMGKQNQNIA,QGAITRV,QQYQRLPLW,76 nM,6 of 6
MVSQLMVWGLHAKNSIA,EAQTRCN,QQYDRLPLF,110 nM,2 of 6
HTSPSVLYESRNCNSVA,NASTRES,QQKHRLPLS,160 nM,4 of 6
KSSYSVAYESRNKNSVA,WASTRES,QQIHRLPLS,370 nM,3 of 6
KLGASVGYESRNKSRVA,DNSTRES,QQYDRLPLS,1.1 µM,6 of 6
KSSQSGLYESRSKNSVA,WASTRES,QSYHRLPLS,2.0 µM,3 of 6
IVSQLMLWGYHAKNSIA,EAEQRIN,QQYDRLPLF,not detected,0 of 6
KSSQSVKYESRNKNSVA,WAYTRES,QQYHRLPLS,not detected,0 of 6
KLYVSTMLESLNKNSIA,DLSTRGN,QQYHRLPLS,not detected,0 of 6

The authors' rule: three or more of the six replicates give a measured affinity, fewer mean a poor binder. The range of this assay differs from that of the first round, and the authors advise against merging the two. Three control strains display no target. For all light chain designs, 4% of the pairings with them gave a signal, with a median of 430 nM and one signal in twenty below 38 nM, so weak values seen in few replicates may be background.